B2AR arrestin: recruits beta-arrestin to the human beta2-adrenergic receptor; beta-arrestin recruitment to beta2AR, cell-based reporter; 330,000 compounds, 0.02% hits; AID 492947; Potency, µM (doses to about 46.1 µM), hits mostly activators; P07550; active = well fitted curve in the direction sought with a large enough effect; inconclusive = small, poorly fitted or top-dose-only effect, or another doubt; inactive = no such curve, though single readings can be large; an effect the other way counts as inactive or inconclusive; note: nearly all actives have a fitted effect of over 65% in size
CCT chaperon mod: modulators of cytosolic chaperonin (CCT/TRiC) activity. purified chaperonin ATPase assay, HTRF ADP detection, 30 min. activity change, % (test concentration not listed), hits read low. AID 651819. 360,000 compounds, 0.3% hits; in the data active = activity change below about -30%
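Nucleotide hydrolysis assay: TRiC at 20–40 nM final (set by batch activity) with 10 uM ATP, 30 min at 37 °C, in presence of 76 uM compound. Detection by competitive ADP HTRF, 30 min ambient.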
MmCpn inh: blocks the Methanococcus maripaludis chaperonin Mm-Cpn; purified Mm-Cpn ATPase, ADP Transcreener TR-FRET; Potency, µM (series often up to 76.9 µM), usual class: inhibitors; 330,000 compounds, 0.031% hits; active = well fitted curve in the direction sought with a large enough effect; inconclusive = small, poorly fitted or top-dose-only effect, or another doubt; inactive = no such curve, though single readings can be large; an effect the other way counts as inactive or inconclusive; note: nearly all actives have a fitted effect of over 80% in size
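25 nM Mm-CPN + cpd, 10 min 37°C; + 10 uM ATP, 30 min 37°C; buffer 30 mM Tris pH 7.4, 100 mM KCl, 5 mM MgCl2, 1 mM DTT; Transcreener ADP HTRF detection 30 min RT.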
Rango complex inh: prevents formation of the Rango-importin beta complex; Potency, µM (highest dose often 92.2 µM); 340,000 compounds, 0.031% hits; Q14974; Rango CFP/YFP FRET sensor + importin beta, 45 min; note: nearly all actives have a fitted effect of over 15% in size
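Inhibition scored from the CFP 486 nm/YFP 530 nm FRET ratio 45 min after adding 0.125 microM importin beta to 50 nM Rango biosensor preincubated 5 min with compound (room temperature, PBS with DTT, Tween-20, BSA). No-importin wells as positive control.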
Rango release inh: prevents RanGTP from dissociating the Rango-importin beta complex; O95149+P62826; Biochemical FRET Rango-importin beta, RanGTP-induced dissociation; Potency, µM (top dose mostly 46.1 µM); 340,000 compounds, 0.071% hits; AID 540253; note: nearly all actives have a fitted effect of over 45% in size
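Two FRET readings bracket the reaction: one 5 min after compound meets Rango–importin beta, another 45 min after RanGTP-RCC1 (0.6 uM Ran, 0.2 uM RCC1, 2 mM GTP) is added. Only the second defines inhibition.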
Each line names hits and unclear results; the compound was inactive in the other large screens. Shown are actives, neighbours in structure and some others; about 0.43% of the full set was active somewhere. Unless noted, calls come from the whole dose curve.

Cc1nn(CC(C)C)c(Cl)c1C(=O)NCC(C)(C)N1CCOCC1	CCT chaperon mod -33.9 (no result: B2AR arrestin, MmCpn inh, Rango complex inh, Rango release inh)
Oc1ccc(-c2sc(Nc3ccccc3)n[n+]2-c2ccc(F)cc2)cc1	MmCpn inh 39.8µM
Oc1ccc2ccccc2c1-c1sc(Nc2ccccc2)n[n+]1-c1ccc(F)cc1	Rango complex inh 51.7µM
CN(C)C(CNC(=O)c1cccc(S(=O)(=O)N2CCN(c3ccccc3)CC2)c1)c1ccccc1 (centres undefined)	CCT chaperon mod -45.7 (no result: B2AR arrestin, MmCpn inh)
C[C@@]12C(=O)N(CC3CC3)CC(=O)N1[C@H](C1CC1)[C@@H]1C(=O)N(c3ccccc3)C(=O)[C@@H]12	none
O=C(CCNC(=O)C1CCN(S(=O)(=O)c2ccccc2)CC1)NCc1ccc(Cl)cc1	CCT chaperon mod -80.1, Rango complex inh inconclusive
O=C(CCNC(=O)C1CCN(S(=O)(=O)c2ccccc2)CC1)NCc1cccc(Cl)c1	CCT chaperon mod -82.9
O=C(CCNC(=O)C1CCN(S(=O)(=O)c2ccccc2)CC1)NCc1cccc(C(F)(F)F)c1	none
O=C(CCNC(=O)C1CCN(S(=O)(=O)c2ccccc2)CC1)NCc1ccc(Cl)cc1Cl	none
CN(C)CCCn1c2c(c(SCC(=O)Nc3nccs3)nc1=O)CCC2	none
COc1ccc(NS(=O)(=O)c2cccc(C(=O)NNC(=O)CNC(=O)c3cccc(C)c3)c2)cc1	none
COCCNC(=O)CSc1nc2ccccc2c(=O)n1CCCC(=O)NCc1ccccc1	CCT chaperon mod -75.0
Cc1noc(C)c1COc1ccccc1C(=O)NC1CCC(C)CC1 (centres undefined)	none
O=C(Nc1cccc(Cl)c1)C1C2CCC3C(CCC21)C3(Cl)Cl (centres undefined)	none
O=c1c2ccccc2oc2cc(-c3ccc4cc[nH]c4c3)ccc12	CCT chaperon mod -43.8, Rango release inh inconclusive
O=c1c2ccccc2oc2ccc(-c3ccc4[nH]ccc4c3)cc12	none (no result: B2AR arrestin, MmCpn inh)
Cc1cc(/C=C(\C#N)C(=O)NCc2ccccc2)cc(C)c1O	Rango complex inh inconclusive, Rango release inh 6.51µM
CCOCCCNC(=O)/C(C#N)=C/c1cc(OC)c(O)c([N+](=O)[O-])c1	none
CCOCCCNC(=O)/C(C#N)=C/c1cc(C)c(O)c(C)c1	Rango complex inh inconclusive, Rango release inh 25.9µM
COc1cc(/C=C(/C#N)C(=O)NCc2ccccc2)cc(OC)c1OC	none
CCOc1ccccc1NC=C1C(=O)OC2(CCCCC2)OC1=O	CCT chaperon mod -37.6
COc1ccc(OC)c(NC=C2C(=O)OC3(CCCCC3)OC2=O)c1	Rango complex inh inconclusive, Rango release inh inconclusive
Brc1ccc(C2=Nc3cccc4cccc(c34)N2)o1	CCT chaperon mod -43.5
COc1cc(C(=O)NCC(=O)OCc2ccccc2Cl)cc(OC)c1OC	CCT chaperon mod -35.5
COCCCNc1oc(COc2ccc(Cl)cc2Cl)nc1C#N	Rango complex inh inconclusive, Rango release inh inconclusive
CN(C)CCNc1oc(COc2ccc(Cl)cc2Cl)nc1C#N	Rango complex inh inconclusive, Rango release inh 16.4µM
COc1ccc(-c2cc(C(=O)N3CCC3)c3ccccc3n2)cc1OC	none
COc1ccc(-c2cc(C(=O)N3CCN(c4ncccn4)CC3)c3ccccc3n2)cc1OC	CCT chaperon mod -60.2
CCN(CC)C(=O)[C@H]1C[C@H](CC(=O)NC(C)(C)C)C(=O)N2CCc3c([nH]c4cc(-c5ccco5)ccc34)[C@]12C	Rango complex inh inconclusive
CC(C)N(C(=O)[C@H]1C[C@H](CC(=O)NC(C)(C)C)C(=O)N2CCc3c([nH]c4cc(-c5ccco5)ccc34)[C@]12C)C(C)C	CCT chaperon mod -41.5, Rango complex inh inconclusive
NNC(=O)c1ccc(CN2C(=O)c3cccc4cccc2c34)cc1	Rango complex inh inconclusive, Rango release inh 18.4µM
COc1ccccc1/C=N/NC(=O)c1ccc(CN2C(=O)c3cccc4cccc2c34)cc1	Rango complex inh inconclusive
COc1ccc(CCNC(=O)C/C(C)=N/NC(=O)C2CCCCC2)cc1OC	CCT chaperon mod -59.6
Cc1c(O)ccc(C(=O)CN2CCN(Cc3ccccc3)CC2)c1O	CCT chaperon mod -56.5
Cc1c(O)ccc(C(=O)CN2CCN(c3ccc(F)cc3)CC2)c1O	none
O=C(COC(=O)/C=C/c1ccccc1)NCc1ccco1	CCT chaperon mod -55.6 (no result: B2AR arrestin, MmCpn inh, Rango complex inh, Rango release inh)
CCN1C(=O)CSC1=Nc1ccccc1Cl	none
COc1cc(/C=N/NC(=S)NC2CC3CCC2C3)ccc1O (centres undefined)	Rango complex inh inconclusive, Rango release inh inconclusive
COc1ccc(/C=N/NC(=S)N[C@H]2CC3CCC2C3)cc1 (some centres undefined)	CCT chaperon mod -67.1
COc1ccc(C(C)=O)cc1Cn1c(C)c(C(=O)NCc2ccc(C(C)C)cc2)sc1=O	none (no result: B2AR arrestin, MmCpn inh, Rango complex inh, Rango release inh)
COC(=O)C(O)(NC(=O)c1ccncc1)C(F)(F)F (centres undefined)	none
COC(=O)C(O)(NC(=O)NC(C)=O)C(F)(F)F (centres undefined)	CCT chaperon mod -56.3
Cc1cc2ccccc2n1CCNC(=O)c1ccc(S(=O)(=O)N2CCCCC2)cc1	MmCpn inh 14.1µM, Rango complex inh inconclusive, Rango release inh inconclusive
C=CCn1c(O)c2ccc(C(=O)N=NC(=O)COc3ccc(OC)cc3)cc2c1O	none
Cc1c(C#N)c2ncn(Cc3ccccn3)c(=O)c2n1-c1ccccc1	CCT chaperon mod -79.6
CC(CNC(=O)CN1C(=O)NC2(CCOc3ccccc32)C1=O)c1ccccc1 (centres undefined)	Rango release inh inconclusive
COCCn1c(Br)nc2c1c(=O)n(C)c(=O)n2C	CCT chaperon mod -41.7
CCC(NC(=O)c1ccc2nc(Cc3ccc(OC)cc3)oc2c1)c1ccncc1 (centres undefined)	CCT chaperon mod -84.0
C=CCC[C@@H](Cc1ccc(F)cc1)C(=O)OC[C@@H](Cc1c[nH]c2ccccc12)NC(=O)[C@H](CC=C)CC(=O)N[C@H](CO)Cc1ccccc1	none
N#Cc1ccc(OCC(=O)NCC2COc3ccccc3O2)cc1 (centres undefined)	CCT chaperon mod -40.9
Cc1ccccc1NC(=O)Cc1nc(COC(=O)CSc2ccc(F)cc2)cs1	CCT chaperon mod -58.2 (no result: B2AR arrestin, MmCpn inh, Rango complex inh, Rango release inh)
Cc1ccccc1NC(=O)Cc1nc(COC(=O)CSc2ccccc2)cs1	none
CCN1C(=O)C(C(=O)c2ccccc2)SC1=S (centres undefined)	none
Cc1cc(C)nc(SCC(=O)NC(=O)c2ccccc2O)n1	none
CC1CCN(CC(O)COc2ccc(-c3ccccc3)cc2)CC1 (centres undefined)	none
COC(=O)c1cccc(NC(=O)c2ccc(OC)c(Cl)c2)c1	CCT chaperon mod -77.5
COc1ccc(-c2cccc(C(=O)Nc3ccc(C)cc3)c2)cc1	none
COc1ccc(-c2cccc(C(=O)Nc3cccc(C(=O)O)c3)c2)cc1	CCT chaperon mod -78.6
COc1ccc(NC(=O)/C=C/C(=O)O)cc1Cl	MmCpn inh 6.31µM
COc1ccc(NC(=O)CCCC(=O)O)cc1Cl	none

From PubChem BioAssay
